Experimental data as given in patent publication US20210206861A1.

By UniProt entry, the sequences of proteins in these tests, tags left out. Residues count along the entry.
UniProt P05112, 25-153 limits assumed: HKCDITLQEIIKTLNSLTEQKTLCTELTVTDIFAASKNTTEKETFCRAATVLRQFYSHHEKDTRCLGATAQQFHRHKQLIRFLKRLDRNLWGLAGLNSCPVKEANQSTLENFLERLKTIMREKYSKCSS

Biological target: IL-4 (purchased from R&D systems) (UniProt P05112)
Assay: cell-based or functional assay

IC50 of inhibition of IL-4-induced TF-1 cell proliferation: 0.28 µg/mL
Substance: IL-4R-ECD-hFc (from UniProt P24394 26-232) (Fc fusion)
